Read-outs that look alike come from different tables or passages of the source.
Experiments:
rats = type: in vivo, rat
Description: Sedation was measured in rats for Indoramin and 4-Benzamido-1-[4-(indol-3-yl)-4-oxobutyl]piperidine in comparison with the tranquillisers perphenazine and haloperidol which were rated at 10.
Twelve rats of each type were split into […] and dosed orally with 10, 25 or 50 mg/kg of the test compound in a vehicle comprising hydroxymethylcellulose (0.5%) in (0.9% saline). Each rat was housed singly, after dosing and observed closely for 2 hours, then intermittently for a further four hours, behavioural changes being noted.
The animals were left at least 72 hours before re-dosing to ensure the disappearance of residual hypotensive and sedative effects.

Patas monkey = type: in vivo; conditions: Patas monkey (male); oral 10-100 mg/kg
Description: The sedative potential of the compounds was also compared in the Patas monkey at dosing levels of 10-100 mg/kg. A group of 6 animals were housed singly and observed daily for one week prior to dosing them orally with the drugs. Each animal served as its own control because of individual variation in temperament. An assessment was made of behavioural changes (indicative of sedation) induced by either drug and the dose ratio separating the drug effects on identical features was determined.

[1] = J. Med. Chem., 14, 1054-59 (1971); cited from earlier work
in vivo = conditions: mouse

For `O=C(NC1CCN(CCc2c[nH]c3ccccc23)CC1)c1ccccc1` [Indoramin, 3-[2(4-benzamidopiperid-1-xl)ethyl] indole, reference compound], the “Approximate sedative potency ratio” value (rats; normotensive rat (male and female)) was 5, the “Approximate sedative potency ratio” value (rats; renal hypertensive rat (female)) was 5 and the “Approximate sedative potency ratio” value (rats; spontaneous hypertensive rat (male)) was 5. For the same compound, the “Approximate sedative potency ratio” value (Patas monkey) was 5, the hypotensive action [1] was “sustained hypotensive action” and the LD50 (in vivo; ip) was 453 mg/kg. The LD50 at 24 h (in vivo; ip) was 453 mg/kg, the LD50 (in vivo; po) was 1050 mg/kg and the LD50 at 24 h (in vivo; po) was 1320 mg/kg.
